Measurements published in patent EP0612845A2 (priority 1993, dated 1994).

Amino acid sequences for entries named in this document (tags omitted).
UniProt P33535, whole entry: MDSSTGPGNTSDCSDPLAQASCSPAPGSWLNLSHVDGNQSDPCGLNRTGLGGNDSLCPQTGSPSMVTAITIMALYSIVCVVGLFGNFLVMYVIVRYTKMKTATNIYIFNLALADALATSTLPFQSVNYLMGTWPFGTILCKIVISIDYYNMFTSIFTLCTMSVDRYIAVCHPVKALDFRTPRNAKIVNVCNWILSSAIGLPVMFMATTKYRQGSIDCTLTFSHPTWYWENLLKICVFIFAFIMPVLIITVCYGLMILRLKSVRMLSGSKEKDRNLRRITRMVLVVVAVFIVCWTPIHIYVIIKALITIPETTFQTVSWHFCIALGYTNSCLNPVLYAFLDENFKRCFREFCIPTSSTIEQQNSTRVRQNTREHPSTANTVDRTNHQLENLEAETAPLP

Molecular target: T1, m-opiate receptor (mOR) cDNA RC8-1 expressed in COS cells (Rattus norvegicus, UniProt P33535)
T1 construct: expressed in transfected cells; host or cells: COS cells, transient electroporation with pcDNA1RC8-1; membranes
Type: binding

## [D-Pen2,4'-Cl-Phe4,D-Pen5]enkephalin [[³H]DPDPE]
  specific recognition of the radioligand: no appreciable specific recognition
